The values below come from US12115226B2, “Linker containing arylnitro, antibody-drug conjugate containing linker and use of linker” (Academy of Military Medical Sciences, priority 2018, dated 2024).

The IC50 is the concentration that gives 50% inhibition.

Data set [1] can be described thus: In vivo safety evaluation, maximum tolerated dose (MTD) in normal CD-1 mice. The conditions noted are these: tail vein, doses 10, 20, 40, 80 and 120.
In data set [2] the test system is antigen HER2-positive breast cancer cell line HCC1954. Briefly: In vitro cytotoxicity of ADC (CellTiter Glo), HCC1954. It counts as cell-based. The procedure: (§1) The vial containing the target cells was gently stirred in a 37° C. water bath to be thawed.
(§2) After the content was thawed, the vial was taken out from the water bath and decontaminated by immersion or spraying with 70% ethanol.
(§3) The cells were re-suspended in the culture medium, settled and distributed into a culture flask with an area of 75 cm^2.
(§4) The resulting culture was incubated in a Galaxy® CO2 incubator (48R, #C048312044) with 5% CO2 at 37° C., and the oxygen concentration in the incubator was 0.1%.
(§5) The cells were passaged three times a week at a ratio of 1:4 in a medium containing 10% […] (heat inactivated) and 1% penicillin-streptomycin solution.
(§6) For the passaged cells, the adherent cells were firstly rinsed with trypsin/EDTA solution (3 mL), then trypsin/EDTA (3 mL, T75 flask) was added, and spun to coat the cells evenly. The resulting culture was incubated at 37° C. until the cells were detached. It was observed by microscope to verify that the cells had been detached, then an equal volume of cell culture medium was added to inactivate trypsin, the detached cells were collected, and centrifuged at 200 g for 5 minutes, and then re-suspended in a fresh culture medium. […]
(§7) The cells were harvested and counted to determine the number of cells;

Data set [3] concerns antigen HER2-weakly positive breast cancer cell line MCF-7. Kind of data set: In vitro cytotoxicity of ADC (CellTiter Glo), MCF-7. The class given is cell-based. On the procedure: as §1, §2, §3, §4, §5, §6, §7
(Cellular ATP, detected with luciferase, serves as a proxy for viable cell number.)

In data set [4] the test system is antigen HER2-negative breast cancer cell line MDA-MB-468. Briefly: In vitro cytotoxicity of ADC (CellTiter Glo), MDA-MB-468. The class given is cell-based. On the procedure:
as §1, §2, §3, §4, §5, §6, §7

Data set [5] deals with antigen HER2-positive gastric cancer cell line NCI-N87. Kind of data set: In vitro cytotoxicity of ADC (CellTiter Glo), NCI-N87. The class given is cell-based, human. The procedure:
as §1, §2, §3, §4, §5, §6, §7

Data set [6] relates to antigen HER2-positive breast cancer cell line BT-474. Kind of data set: In vitro cytotoxicity of ADC (CellTiter Glo), BT-474. The class given is cell-based, human. On the procedure: as §1, §2, §3, §4, §5, §6, §7

For the substance “MAB: anti-HER2 humanized monoclonal antibody mil40, a biosimilar of Herceptin, purchased from Zhejiang Hisun Pharmaceutical”, the “tolerability (adverse reactions, body weight, death)” value in data set [1] is reported as “no obvious adverse reactions, body weight loss or death of animals”. Also, the IC50 in data set [2] worked out at 240 nM; in data set [3], 4.19 µM; in data set [4], 1840 nM; in data set [5], 28.5 nM; in data set [6] it was 84.1 nM.
